## scFv variants of Ab-14 (heavy chain) against a SARS-CoV-2 spike peptide

Values reported by Li et al. 2023, doi:10.1038/s41467-023-39022-2 (FLAb copy).

Target: peptide PDVDLGDISGINAS, taken from heptad repeat 2 (HR2) of SARS-CoV-2 spike.

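Designed CDR sequences, proposed from the first random library and measured here. Several design methods are mixed in this list. AlphaSeq pools MATa yeast showing the antibodies with MATalpha yeast showing the peptide. Mating (16 h, 30 °C) was followed by selection of diploids and sequencing of their barcodes. The ratio of observed to expected reads was calibrated, replicate by replicate, on BCL2-family standards whose Kd was known from biolayer interferometry. Mating was done six times.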

Parent scFv Ab-14: VH joined to VL by a 15-residue (Gly4Ser)3 linker. Changes lie in the heavy chain CDRs alone.
VH: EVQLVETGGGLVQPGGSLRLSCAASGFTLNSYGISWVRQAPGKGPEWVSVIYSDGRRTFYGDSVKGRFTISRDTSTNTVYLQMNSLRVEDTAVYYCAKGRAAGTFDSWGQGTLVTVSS
VL: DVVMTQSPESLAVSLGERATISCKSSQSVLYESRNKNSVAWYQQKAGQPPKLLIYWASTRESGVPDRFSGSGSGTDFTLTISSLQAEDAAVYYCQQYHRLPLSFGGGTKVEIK

Positions count from residue 1 of the parent VH; G103L puts L in place of G. Variants here have at most six changes. Scale: log10 of Kd in nM, estimated from mating counts; low values are strong binders. Replicates are averaged; those with no signal do not enter the mean. "nd" marks a missing value. The strain was present, yet no cells mated with the target were sequenced in that replicate, which points to weak or no binding. The authors' rule: three or more of the six replicates give a measured affinity, fewer mean a poor binder. A sequence measured in both rounds can read differently, since the two assays cover different ranges. Empty control strains, which show no peptide, gave a signal in 1% of pairings with all heavy chain designs; the median was 2.08 and 95% of these signals were weaker than 0.84. No background was subtracted. Also given: how often the same scFv was detected with the empty control strains. The parent sequence was in this pool as ten entries: three were never detected, three once, and four in most replicates, with averages from 0.34 to 2.37.

The variant G103L+T104Q showed nd, nd, nd, nd, nd, nd (controls 0 of 18). With T28S+R100K+A101T+S107T the result was 0.21, 0.04, -0.08, 0.44, 0.07, 0.37 (mean 0.17; controls 0 of 18). The variant N30D+R56Q+Y60K+G61L+F105A+D106L showed nd, nd, nd, nd, nd, nd (controls 0 of 18). The variant G26M+T28N+R100Q+A101I showed 0.96, 1.08, 1.02, 1.57, 0.44, 1.77 (mean 1.14; controls 0 of 18). For T28V+Y32H, the assay gave 1.21, 2.31, 1.94, 4.42, 1.69, 2.57 (mean 2.36; controls 1 of 18).

With I51K+Y52A+G99A+F105N+D106K the result was nd, nd, nd, nd, nd, nd (controls 0 of 18). The variant L29M+S31D+G103L+D106I showed nd, nd, nd, nd, nd, nd (controls 0 of 18). The variant T28H+G61A+A101E+S107T showed -0.18, -0.33, -0.63, -0.74, -0.57, -0.39 (mean -0.47; controls 0 of 18). For G26K+T28D+G61Q+R100Q+A101T, the assay gave 0.87, nd, 0.86, 0.80, 0.80, 1.03 (mean 0.87; controls 0 of 18). With T28S+S31E+S63T+A101T the result was -0.17, -0.02, 0.19, -0.33, -0.19, -0.10 (mean -0.10; controls 0 of 18).

For D54C+G61D+R100Q+A101L+G103K, the assay gave nd, nd, nd, nd, nd, nd (controls 0 of 18). With S31E+R56K+G61I the result was 1.86, 0.58, 1.19, 1.24, 1.11, 1.07 (mean 1.18; controls 0 of 18). With G61D+G99N the result was nd, nd, 3.03, nd, nd, nd (controls 1 of 18). The variant G26K+T28S+R56K+G61A+A101T showed 1.23, 1.08, 0.64, 0.54, 0.55, 0.60 (mean 0.77; controls 0 of 18). For T28Y+S31D+A101Q+D106I, the assay gave nd, nd, 1.49, nd, 1.49, nd (mean 1.49; controls 0 of 18).

The variant T28S+A101D+S107Q gave 1.18, 1.60, 0.91, 1.23, 0.90, 1.40 (mean 1.20; controls 0 of 18). The variant S31E+G61S+S63D+A101T showed 0.01, -0.16, -0.15, 0.08, -0.17, 0.00 (mean -0.06; controls 1 of 18). The variant T28G+S31E+G61H+A101N showed 0.59, 0.36, 0.23, 0.11, 0.53, 0.40 (mean 0.37; controls 0 of 18). The variant S31D+G33D+G103L+D106I gave nd, nd, nd, nd, nd, nd (controls 1 of 18). The variant N30D+G61K+R100Q gave 2.49, 1.65, 1.26, 1.01, 2.12, 1.09 (mean 1.60; controls 1 of 18).

The variant T28N+S31E+G61K showed 0.59, 0.47, 0.26, 0.56, 1.21, 1.11 (mean 0.70; controls 1 of 18). The variant T28S+G61A+S63D+R100N gave nd, nd, nd, nd, nd, nd (controls 0 of 18). For A101T+F105I+D106S, the assay gave nd, nd, nd, nd, nd, nd (controls 0 of 18). For G26Y+F27K+T28S+F59A, the assay gave nd, nd, nd, nd, nd, nd (controls 0 of 18). The variant T28D+R100Q+A101E showed 0.42, 0.11, 0.51, 0.15, 0.41, 0.09 (mean 0.28; controls 1 of 18).

For T28D+A101C+A102Q, the assay gave nd, nd, nd, nd, nd, 3.21 (controls 0 of 18). With F27L+T28D+S53M+A101N the result was nd, nd, nd, nd, nd, nd (controls 0 of 18). The variant T28P+L29P+T58K showed nd, nd, nd, 1.20, nd, nd (controls 0 of 18). With T28G+S31E+A101M the result was 1.09, 1.25, 0.11, 0.75, 1.22, 1.09 (mean 0.92; controls 0 of 18). With T28S+G61A+S107T the result was 0.72, 0.29, 0.73, 0.30, 0.09, 0.27 (mean 0.40; controls 0 of 18).

For G55K, the assay gave nd, nd, nd, nd, nd, nd (controls 0 of 18). With N30D+A101V+S107R the result was 1.36, 0.93, 1.50, 1.52, 1.43, 1.17 (mean 1.32; controls 0 of 18). The variant T28E+S53A+S63N+A101T gave 0.08, -0.07, -0.32, -0.30, -0.27, -0.01 (mean -0.15; controls 0 of 18). For F59S+V64T+S107I, the assay gave nd, nd, nd, nd, nd, nd (controls 0 of 18). The variant T28S+S53A+R100K+S107T showed 0.25, -0.10, 0.20, -0.21, -0.15, -0.19 (mean -0.03; controls 0 of 18).

The variant G26S+T28E+S31E+R100Q+A101T gave nd, 2.40, 1.83, 2.11, nd, 1.60 (mean 1.99; controls 0 of 18). With F27R+A101F the result was nd, 1.38, 2.33, nd, nd, nd (mean 1.85; controls 0 of 18). The variant T28D+S31E+A101E gave -0.19, -0.16, -0.23, -0.53, -0.40, -0.40 (mean -0.32; controls 0 of 18). The variant N30D+S31D+F59G showed 0.31, -0.12, 0.19, 0.12, -0.20, -0.39 (mean -0.01; controls 0 of 18). For G26H+S31F+G61S+T104S, the assay gave nd, nd, nd, nd, nd, nd (controls 0 of 18).

For L29R+G61S+K65R, the assay gave 2.05, nd, 1.95, nd, nd, nd (mean 2.00; controls 0 of 18). The variant T28S+G61H+R100E showed -0.56, 0.21, -0.23, -0.45, -0.18, -0.41 (mean -0.27; controls 1 of 18).

Picked from the list: the 6 lowest averages where every replicate gave a value.

changes	replicates, log10 nM	mean log10 Kd (nM)	control signals
T28H+G61A+A101E+S107T	-0.18, -0.33, -0.63, -0.74, -0.57, -0.39	-0.47	0/18
T28D+S31E+A101E	-0.19, -0.16, -0.23, -0.53, -0.40, -0.40	-0.32	0/18
T28S+G61H+R100E	-0.56, 0.21, -0.23, -0.45, -0.18, -0.41	-0.27	1/18
T28E+S53A+S63N+A101T	0.08, -0.07, -0.32, -0.30, -0.27, -0.01	-0.15	0/18
T28S+S31E+S63T+A101T	-0.17, -0.02, 0.19, -0.33, -0.19, -0.10	-0.10	0/18
S31E+G61S+S63D+A101T	0.01, -0.16, -0.15, 0.08, -0.17, 0.00	-0.06	1/18